The entries are a selection whose mix differs from that of the whole data set. Active and inactive are the calls of the source. Calls come from the whole dose curve; as a rule, active = well fitted activation curve with a large enough effect; inconclusive = small, poorly fitted or top-dose-only effect, or another doubt; inactive = no such curve, though single readings can be large or run the other way.

Protein sequences, listed by entry. Tags and fused reporters are not part of them. Lines headed by an entry give the natural chain unless they say otherwise; changes in a name come on top.
UniProt Q03431: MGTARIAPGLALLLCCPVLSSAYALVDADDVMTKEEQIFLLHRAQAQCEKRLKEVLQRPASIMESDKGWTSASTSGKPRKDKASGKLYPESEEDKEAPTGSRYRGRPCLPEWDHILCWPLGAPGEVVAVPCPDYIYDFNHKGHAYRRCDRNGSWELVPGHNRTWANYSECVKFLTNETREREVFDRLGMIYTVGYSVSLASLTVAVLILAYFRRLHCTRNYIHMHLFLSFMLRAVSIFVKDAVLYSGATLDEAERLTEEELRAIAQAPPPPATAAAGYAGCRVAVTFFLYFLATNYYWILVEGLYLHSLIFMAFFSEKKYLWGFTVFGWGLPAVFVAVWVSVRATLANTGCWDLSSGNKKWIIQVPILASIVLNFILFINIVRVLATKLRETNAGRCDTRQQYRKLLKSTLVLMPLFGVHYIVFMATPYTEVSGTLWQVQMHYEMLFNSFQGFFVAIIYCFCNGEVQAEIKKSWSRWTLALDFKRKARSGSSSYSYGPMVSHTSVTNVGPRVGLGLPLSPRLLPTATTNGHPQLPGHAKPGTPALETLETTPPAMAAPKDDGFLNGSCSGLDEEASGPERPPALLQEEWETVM

The text below walks through data of PubChem BioAssay AID743266 (National Center for Advancing Translational Sciences (NCATS), 2014).

In this assay the target is Parathyroid hormone/parathyroid hormone-related peptide receptor (Homo sapiens) (UniProt Q03431). Nature of the assay: qHTS for PTHR1 Agonists: Primary Screen. Note: nearly all actives have a fitted effect of over 55% in size. The conditions noted are these: HEK293 GP2 PTHR1 cells, GloSensor cAMP luminescence, 1 h; activation: at 115 µM (top of the series) unless noted.
Regarding `Cc1ccc2nc3c(c(C)c2c1)CC(C(Cl)Cl)S3` (centres undefined), the activation result is “inactive”. The same measure, in the same setting: as for `Cc1ccc(OP(=O)(Nc2ccc([N+](=O)[O-])cn2)Oc2ccc(C)cc2)cc1`, the figure is inactive: -2.03%; as for `[N-]=[N+]=NC1CCCCC1NC(=O)c1cc([N+](=O)[O-])cc([N+](=O)[O-])c1` (centres undefined), “inactive”. Take `COC(=O)C1(C)COP(=O)(N2CCCCCC2)OC1` (centres undefined): the activation result is “inactive”. Still for that read-out and setting: as for `CC(C)c1ccc(OP(=O)(Nc2ccccn2)Oc2ccccc2F)cc1` (centres undefined), the figure is inactive: -45.7%; as for `ClCCSc1nnc(-c2cccnc2)o1`, “inactive”. On the same count and under the same terms, as for `CC(C)NC(=O)NP(=O)(Oc1ccccc1)Oc1ccccc1`, the figure is inactive: -51.6%. As to `CCN(CC)C(=S)SC(NC=O)C(Cl)(Cl)Cl` (centres undefined), the outcome is “inactive [at 57.5 µM]”.

For the compound `O=C(OC1CN2CCC1CC2)c1cccc2[nH]cnc12` (centres undefined), the activation entry is “inactive”. Same read-out and setting: for `O=[N+]([O-])c1cc([N+](=O)[O-])c(-c2ccn[nH]2)s1` the value was “inactive”; for `Cc1cc(=O)[nH]c(N[N+](=O)[O-])n1`, inactive: -19.3%.

For `Cc1c2c(nc3ccccc13)SC(C(Cl)Cl)C2` (centres undefined), the activation entry is “inactive”. Same read-out and setting: for `COc1ccc2nc(NP(=O)(c3ccccc3)c3ccccc3)sc2c1` the value was inactive: -0.732%. Same read-out and setting: for `COc1cc(I)ccc1[As](=O)(O)O` the value was inactive: -5.82%; for `O=P1(N(CCCl)CCCl)Nc2ccccc2N1`, inactive: -31%; for `O=P1(N(CCCl)CCCl)OCCCN1CCCl` (centres undefined), inactive: 9.02%. On the same count and under the same terms, for `COc1ccc(N/C(=N/P(=O)(N2CCOCC2)N2CCOCC2)N2CCOCC2)cc1` the value was inactive: 20.1%. As for `O=[N+]([O-])c1cc(Oc2ccc([N+](=O)[O-])cc2C(F)(F)F)cc([N+](=O)[O-])c1`, the activation was inactive: -12.6%. Turning to `O=[As](O)(O)c1cccnc1`, the activation entry was “inactive”. For `COc1cc(C(=O)NCC2(N3CCOCC3)CCCCC2)cc(Cl)c1OC(C)C`, the activation entry was “inactive”.

For `CS(=O)(=O)c1ccc(Cl)c(NC(=O)COC(=O)C(O)(c2ccccc2)c2ccccc2)c1`, the activation is inactive: -13.6%. Take `O=C(OC1CN2CCC1CC2)c1ccc(Cl)cc1` (centres undefined): the activation entry was “inactive”. Same read-out and setting: for `Cc1cccc(OCC(=O)OC2CN3CCC2CC3)c1` (centres undefined) the value was inactive: -24.3%.

For the compound `O=[As](O)(c1cccc(O)c1)c1cccc(O)c1`, the activation entry is “inactive”. For the compound `CCCOP(=S)(Nc1nc(N)cc(=O)[nH]1)OCCC`, the activation entry is “inactive”. Still for that read-out and setting: for `Cc1ccc(NCCc2c([N+](=O)[O-])cc([N+](=O)[O-])cc2[N+](=O)[O-])cc1` the value was inactive: -0.424%; for `Nc1cccc2c([As](=O)(O)O)cccc12`, “inactive”; for `COc1cc(C2NCCC3(OCCO3)C2(C)C)cc(OC)c1OC` (centres undefined), “inactive”. Still for that read-out and setting: as for `CCOP(=O)(Nc1cccc2ccccc12)OCC`, the entry is “inactive”.

Consider `CS(=O)(=O)c1cc([N+](=O)[O-])c2no[n+]([O-])c2c1`, for which the activation result is “inactive”. The same measure, in the same setting: for `CCOP1(=S)c2c(C)nn(CCC#N)c2N=C(c2ccccc2F)N1C` (centres undefined) the value was inactive: 20.6% [at 57.5 µM]; for `O=P(Nc1nccs1)(Oc1ccccc1)Oc1ccccc1`, inactive: -10.8%; for `O=P(Nc1nccs1)(c1ccccc1)c1nc2ccccc2s1` (centres undefined), “inactive”. On the same count and under the same terms, as for `O=C(O)COc1ccc([As](=O)(O)O)cc1[N+](=O)[O-]`, the figure is inactive: -16.8%; as for `Nc1ccccc1[As](=O)(O)c1ccccc1`, “inactive”.

As to `NC(=O)Nc1ccc([As](=O)(O)O)cc1`, the activation entry was “inactive”. The same measure, in the same setting: as for `CN(C)C(=O)c1cc([N+](=O)[O-])cc2c1-c1c(cc([N+](=O)[O-])cc1[N+](=O)[O-])C2=O`, the figure is inactive: -30.5%; as for `CN(C(=O)Cc1ccc(Cl)c(Cl)c1)[C@H]1CC[C@@]2(CCCO2)C[C@@H]1N1CCCC1`, inactive: -38%; as for `N#CCCN(C(=O)COC(=O)C(O)(c1ccccc1)c1ccccc1)c1ccc(F)cc1`, inactive: -43.6%.

As to `CCOP1(=S)c2c(C)nn(CCC#N)c2N=C(c2ccc(F)cc2)N1C` (centres undefined), the activation was inactive: -8.31% [at 57.5 µM].

With `CN(C(=O)Cc1ccccc1)[C@@H]1CC[C@]2(CCCO2)C[C@H]1N1CCCC1`, the activation result was “inactive”. Still for that read-out and setting: as for `Cc1nn(-c2ccccc2)c2c1P(=O)(N1CCOCC1)N(C)C(c1ccccc1)=N2` (centres undefined), the entry is “inactive”. `Cc1ccc(C(=O)OC2CN3CCC2CC3)cc1` (centres undefined): the activation result is “inactive”. For the compound `CC1CCC(C(C)C)C(OP(=O)(Nc2ccccn2)c2ccccc2)C1` (centres undefined), the activation was inactive: -95.1%.

`CCCC1OP(=O)(Nc2ccccc2)OCC1CC` (centres undefined): the activation is inactive: -11.1%. On the same count and under the same terms, as for `CN(C)C1(CNC(=O)c2ccc(S(C)(=O)=O)cc2)CCCCC1`, the entry is “inactive”. On the same count and under the same terms, as for `O=P1(Nc2ncccn2)COc2ccccc2OC1`, the entry is “inactive”. On the same count and under the same terms, for `Cc1ccc(OCC(=O)OC2CN3CCC2CC3)cc1` (centres undefined) the value was inactive: -2.71% [at 57.5 µM]; for `O=[As](O)(c1cccs1)c1cccs1`, inactive: -22.2%; for `NS(=O)(=O)c1cccc(NC(=O)COC(=O)C(O)(c2ccccc2)c2ccccc2)c1`, “inactive”. Consider `O=P1(Nc2ccc(Br)cn2)COc2ccccc2OC1`, for which the outcome is “inactive [at 57.5 µM]”. For the compound `Nc1cccc([As](=O)(O)c2ccccc2)c1`, the activation entry is “inactive”.

Regarding `CCOP(=O)(Nc1ccc(C)cn1)OCC`, the activation result is “inactive”. With `CN(CCCl)Cc1cc(Cl)c(NC2=NCCN2)c(Cl)c1`, the activation is inactive: 13%.

As for `CCC1=CC2Cc3nc4ccc(Cl)cc4c(N)c3C(C1)C2` (centres undefined), the activation is inactive: -38.1%. In the case of `O=P1(Nc2ccccn2)COc2ccccc2OC1`, the activation result is “inactive”. Same read-out and setting: as for `CCOP(=O)(NC(=NC(C)c1ccccc1)NC(C)c1ccccc1)OCC` (centres undefined), the entry is “inactive”; as for `Clc1n[nH]nc1-c1nn[nH][15n]1`, “inactive”. Turning to `O=P1(N(CCCl)CCCl)NCCC(C(F)(F)F)O1` (centres undefined), the activation entry was “inactive”. Same read-out and setting: as for `CC(C)(C)C(=O)NC(Sc1ncccn1)C(Cl)(Cl)Cl` (centres undefined), the figure is inactive: -21%.

For the compound `COc1ccccc1CNC(=O)COC(=O)C(O)(c1ccccc1)c1ccccc1`, the activation was inactive: -2.72%. Take `CC1(CBr)Cn2c(nc3ccccc3c2=O)S1` (centres undefined): the outcome is “inactive [at 57.5 µM]”. As for `CN(C(=O)Cc1ccc(Cl)c(Cl)c1)[C@@H]1CCCC[C@H]1N1CCCC1`, the activation is inactive: 27.8%. Same read-out and setting: for `CC(C)/C=N\N=C(\N)N[N+](=O)[O-]` the value was “inactive”.
